Test results as given in patent US7291628B2, “Treatment of cocaine abuse using N-substituted derivatives of morphinan” (McLean Hospital Corporation, priority 2001, dated 2007).

Test system: brain opioid receptors
Details: baboon, intravenous, 1.09 mCi, SPECT

For “[123-I] (−)-3-hydroxy-N-(E)-iodoallylmor [[123-I]-MCL-118]”, the “washout from all areas of the brain” value was “almost completely washed out in 4 hours” and the “time to high uptake in brain areas with the highest concentration of kappa and mu receptors” value (OC, thalamus, brain stem, CC, PC) was 15 to 30 min.
